Results: patent US11806404B2, “Site specific homogeneous with KSP inhibitors” (BAYER PHARMA AKTIENGESELLSCHAFT, priority 2015, dated 2023)

Test system: respective Target-expressing cells
Test: Internalisation assay with labelled commercially available antibodies
Format: cell-based
Conditions: vs isotype control

Herceptin: "The commercially available antibodies (Cetuximab, Nimotuzumab, Herceptin)"
internalization: target-dependent internalization
